## Binding of CDR-mutated scFvs to a peptide of the spike HR2 region

Data: MIT Lincoln Laboratory AlphaSeq set, Engelhart et al. 2022, doi:10.1038/s41597-022-01779-4, as distributed in FLAb.

Target: peptide PDVDLGDISGINAS, taken from heptad repeat 2 (HR2) of SARS-CoV-2 spike.

Parent scFv Ab-14: VH joined to VL by a (GGGGS)3 linker. Changes lie in the light chain CDRs alone.
VH: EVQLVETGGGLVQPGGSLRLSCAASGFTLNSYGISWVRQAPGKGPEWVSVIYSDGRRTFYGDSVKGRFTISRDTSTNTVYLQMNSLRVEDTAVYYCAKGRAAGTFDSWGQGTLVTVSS
VL: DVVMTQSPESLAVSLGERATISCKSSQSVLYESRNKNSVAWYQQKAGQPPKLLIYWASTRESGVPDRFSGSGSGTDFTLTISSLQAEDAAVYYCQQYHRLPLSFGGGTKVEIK

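The parent was found by panning a naive human phage display library on the peptide. Variants in AAYL50 differ from the parent at up to three CDR positions; double and triple changes were sampled at random. In AlphaSeq, yeast of one mating type display the scFv and yeast of the other type display the target. Mating (16 h, 30 °C) was followed by selection of diploids and sequencing of their barcodes. Scores were corrected for input abundance and mapped to Kd with protein pairs of known affinity run in the same pool. The assay was run in three technical replicates.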

The parent's light chain CDRs are KSSQSVLYESRNKNSVA, WASTRES, QQYHRLPLS; each variant's own CDRs replace them letter for letter. Affinities are written as log10 Kd with Kd in nM; a lower number is a better binder. Replicates are averaged; those with no signal do not enter the mean. "no signal" marks a missing value. The strain was present, yet no cells mated with the target were sequenced in any replicate, which points to weak or no binding. Nonspecific signal, from three strains lacking the peptide, appeared in 18% of pairings of library AAYL50, centred on 4.19 (5% of these signals below 2.99); values are not corrected for it. In this assay the parent's reference entry averaged 0.65; its copy inside this library read 1.68.

CDR-L1	CDR-L2	CDR-L3	mean log10 Kd (nM)	seen in
DSSQSVLKESRNKNSVA	WASTRES	QQCHRLPLS	4.52	2/3
KSSQSVLYESRIKESVA	WASTRES	KQYHRLPLS	no signal	0/3
KSSQSVLYESRNKNFVA	WASSRES	QQYHRLPLS	4.45	2/3
KSSQEVLYLSRNKNSVA	WASTREF	QQYHRLPLS	2.99	3/3
KSSQSVLYESRNKNSVA	WASTREA	QQYGRLPLS	0.57	3/3
KSSQSVLYESRNKNSVA	WASYRES	QQYHRLPCS	no signal	0/3
KSSQWVLYESRNKNSVA	WASTRES	QQYMRLPLS	no signal	0/3
KSSQSLLYESRNKNSVA	WASTRES	QEYHPLPLS	no signal	0/3
KSSQEVLYESMNKRSVA	WASTRES	QQYHRLPLS	1.26	3/3
KSSQSVLYESRNKNSVA	WASPRET	QQYHRLPLS	no signal	0/3
MSSQSVLYESRNKNSVA	WASTRES	QQYHRWPLV	1.19	3/3
KSSQSVWYESRNCNSVA	WASTRES	QQYHRLPLN	1.48	3/3
KSSQSVLYTSRNKNSVA	WGSTRES	QQYHVLPLS	1.60	3/3
KSSQSVCYESRNKNSVA	WASTRES	QWYHRLPLS	2.39	3/3
KSPQSVLYESRNFNSVA	WASTRES	QQYHRLPLY	2.74	3/3
KSSQSVLYESRNKNHVA	WASTREM	QQYVRLPLS	3.54	3/3
KSSQSVLVESRNFNSVA	WASTRES	QRYHRLPLS	1.74	3/3
KSSQPVLYESENKNSVA	WASTRES	QQYHRLPIS	1.72	3/3
YSSQRVLYEPRNKNSVA	WASTRES	QQYHRLPLS	2.16	3/3
KSSFSVLYESRNKNSVA	WACHRES	QQYHRLPLS	4.05	3/3
KSSQSVLYEMRNKNSVA	WVSTRED	QQYHRLPLS	4.66	1/3
KSSQSVLYEMRNKNSVA	WASTRES	QQCHRLPLS	4.41	3/3
KSSQSVLYEVRNKISVA	WASTRES	QQYHRLPLD	4.83	1/3
KSSQSVLEESRYKNSVA	EASTRES	QQYHRLPLS	0.01	3/3
KSSQSVLYESRNKNSVA	WLSTRES	QQYHRPPGS	no signal	0/3
KSSQSVLYESRNCNSVA	WASTRES	CQYHWLPLS	no signal	0/3
KSSQSVLYESDNTNSCA	WASTRES	QQYHRLPLS	2.54	3/3
KSSQSILLESRNKNTVA	WASTRES	QQYHRLPLS	2.49	2/3
KSSQSVLYESRNKNSVA	WASFRES	QIYHELPLS	2.25	3/3
KSSQSVLYESRNTNSVA	WASTRES	NHYHRLPLS	no signal	0/3
KSSQPVLYESRNKNSVA	RHSTRES	QQYHRLPLS	3.25	3/3
KSSQSVLHESRNKNYVA	WASTRES	QQYHRSPLS	4.84	3/3
KSSQSVLYESRNKNSVF	WESTRES	QQYHRNPLS	no signal	0/3
KQSQSVLYESRYKNSVA	WASTRES	HQYHRLPLS	no signal	0/3
KSSQGVLPESRNFNSVA	WASTRES	QQYHRLPLS	0.65	3/3
KSSQSVLYESCNANSVA	WASTRES	QQYHRLELS	4.56	2/3
KSSNSVPYESRNKNSVA	WNSTRES	QQYHRLPLS	no signal	0/3
KSSQSILYESRNKNSVA	WASTRES	QPYSRLPLS	no signal	0/3
WSSNSVLYESRNKNSVA	WASTIES	QQYHRLPLS	no signal	0/3
KSTQSVLYDSTNKNSVA	WASTRES	QQYHRLPLS	0.33	3/3
KSSQSVLDESRNKVSVA	WASTREQ	QQYHRLPLS	no signal	0/3
KSSQSVLYYSRNKNSHA	WASTRES	QQYHRLPLS	4.00	1/3
KSMQSVLYESRNFNSVA	WASTRES	QQYHRLPLS	1.64	3/3
KSSGSVLYPSRNKNSVA	WASTRES	QQYHRKPLS	no signal	0/3
KSSQSVLYESRNKNSVA	KASTRAS	QQYHRLPLS	2.19	3/3
KSKASVLYESRNKNSVA	WASTRES	QQYHDLPLS	1.27	3/3
KSSQSVLYESRNKNDVA	WESTRES	QQYHRLPLS	5.19	2/3
KSSQSVLYESRNKNSVA	WASTRES	QQYHRQPHS	no signal	0/3
KSSQSVLYESRNKNSVA	WASTRES	QIYYRLPLS	2.01	3/3
KSSQSVSYESRAKNSVA	WASTRES	QQQHRLPLS	1.27	3/3
KSSQSVLYESRNKQSVA	WASTRES	QVIHRLPLS	no signal	0/3
MSHQSVLYESRNKNSVA	WASTREH	QQYHRLPLS	1.96	3/3
KSTQSVLYESRNKNSVA	WASTRES	DQYHRLPLS	no signal	0/3
KSSQSVLYESCNKQSVA	WASTRES	QQCHRLPLS	1.23	3/3
MSSQKVLYEARNKNSVA	WASTRES	QQYHRLPLS	1.90	3/3
KSSQSVLYESRNKNSVA	WVSTRES	QQYHYLPLS	2.82	1/3
KSSQSVEYESRNKNSNA	WASTRES	QQYHRLMLS	no signal	0/3
KSSQSVLYESRNKNSVA	TESTRES	QTYHRLPLS	3.82	2/3
KSSQSELYESRNKPNVA	WASTRES	QQYHRLPLS	2.92	3/3
KSSQSVLYESRNKNSFA	WASTRES	QQAHRLMLS	3.27	2/3
KSSFSVLYESGNKNSVA	WASRRES	QQYHRLPLS	0.38	3/3
PSSQSVLYESRNKNSVA	WASFRES	QQYHRRPLS	3.72	1/3
KSSQWVLYESRNKNVVA	WASTRES	QQYHRLPLS	no signal	0/3
KSSQSVLYESRNKNEVS	WAKTRES	QQYHRLPLS	4.45	2/3
KSSQSVLYESRNKMSVA	KASTRES	QQYHSLPLS	0.73	3/3
KSSQSVLYNSRNKNSVD	WASTRES	QQGHRLPLS	3.90	1/3

Again, the first 11 entries without any signal:

CDR-L1	CDR-L2	CDR-L3	mean log10 Kd (nM)	seen in
KSSQSVLYESRIKESVA	WASTRES	KQYHRLPLS	no signal	0/3
KSSQSVLYESRNKNSVA	WASYRES	QQYHRLPCS	no signal	0/3
KSSQWVLYESRNKNSVA	WASTRES	QQYMRLPLS	no signal	0/3
KSSQSLLYESRNKNSVA	WASTRES	QEYHPLPLS	no signal	0/3
KSSQSVLYESRNKNSVA	WASPRET	QQYHRLPLS	no signal	0/3
KSSQSVLYESRNKNSVA	WLSTRES	QQYHRPPGS	no signal	0/3
KSSQSVLYESRNCNSVA	WASTRES	CQYHWLPLS	no signal	0/3
KSSQSVLYESRNTNSVA	WASTRES	NHYHRLPLS	no signal	0/3
KSSQSVLYESRNKNSVF	WESTRES	QQYHRNPLS	no signal	0/3
KQSQSVLYESRYKNSVA	WASTRES	HQYHRLPLS	no signal	0/3
KSSNSVPYESRNKNSVA	WNSTRES	QQYHRLPLS	no signal	0/3